# Laboratory results as given in patent US20250076325A1, “ARTIFICIAL HAPTEN AND ARTIFICIAL ANTIGEN OF FENTANYL, AND PREPARATION METHOD AND APPLICATION THEREOF” (published 2025).
# Tested on: colloidal gold immunochromatography reagent strip of fentanyl
# Test: Drug cross-interference experiment of colloidal gold immunochromatography reagent strip of fentanyl
# Conditions: reagent at 100 μg/ml in negative urine
row,Compound,Result (drug cross-interference)
1,CCN(CC)CC(=O)Nc1c(C)cccc1C,−
2,COC(=O)[C@H](Cc1ccccc1)NC(=O)[C@@H](N)CC(=O)O,−
3,CN1CCN(CCCN2c3ccccc3Sc3ccc(C(F)(F)F)cc32)CC1,−
4,CCn1cc(C(=O)O)c(=O)c2cc3c(cc21)OCO3,−
5,Cn1c(=O)c2c(ncn2C)n(C)c1=O,−
6,c1ccc(C2(N3CCCCC3)CCCCC2)cc1,−
7,CN[C@@H](C)[C@@H](O)c1ccccc1,−
8,C=CCN1CC[C@]23c4c5ccc(O)c4O[C@H]2C(=O)CC[C@@]3(O)[C@H]1C5,−
9,CC(=O)OCC(=O)[C@@]1(O)CC[C@H]2[C@@H]3CCC4=CC(=O)CC[C@]4(C)[C@H]3[C@@H](O)C[C@@]21C,−
10,COc1ccc2cc([C@H](C)C(=O)O)ccc2c1,−
11,OCCN1CCN(CCCN2c3ccccc3Sc3ccc(Cl)cc32)CC1,−
12,CC1(C)S[C@@H]2[C@H](NC(=O)[C@H](N)c3ccccc3)C(=O)N2[C@H]1C(=O)O,−
13,N[C@@H](Cc1ccc(O)cc1)C(=O)O,−
14,COc1ccc(C(CN(C)C)C2(O)CCCCC2)cc1 (stereo not drawn),−
15,O=C(O)c1ccccc1,−
16,CC(CN(C)C)CN1c2ccccc2CCc2ccccc21 (stereo not drawn),−
17,CC[C@H]1OC(=O)[C@H](C)[C@@H](O[C@H]2C[C@@](C)(OC)[C@@H](O)[C@H](C)O2)[C@H](C)[C@@H](O[C@@H]2O[C@H](C)C[C@H](N(C)C)[C@H]2O)[C@](C)(O)C[C@@H](C)C(=O)[C@H](C)[C@@H](O)[C@]1(C)O,−
18,CN(C)CCN(Cc1cccs1)c1ccccn1,−
19,CC1=C(CC(=O)O)c2cc(F)ccc2/C1=C\c1ccc([S+](C)[O-])cc1 (stereo not drawn),−
20,CCCC(C)(COC(N)=O)COC(N)=O,−
21,CC(=O)Nc1ccc(O)cc1,−
22,C[C@H]1O[C@@H](O[C@H]2[C@@H](O)C[C@H](O[C@H]3[C@@H](O)C[C@H](O[C@H]4CC[C@@]5(C)[C@H](CC[C@@H]6[C@@H]5C[C@@H](O)[C@]5(C)[C@@H](C7=CC(=O)OC7)CC[C@]65O)C4)O[C@@H]3C)O[C@@H]2C)C[C@H](O)[C@@H]1O,−
23,CN(C)CCC=C1c2ccccc2COc2ccccc21,−
24,CCn1cc(C(=O)O)c(=O)c2ccc(C)nc21,−
25,Clc1cccc(Cl)c1N=C1NCCN1,−
26,OC(O)C(Cl)(Cl)Cl,−

row,Compound,Result (drug cross-interference)
1,CCC1(CCC(C)C)C(=O)NC(=O)NC1=O,−
2,C[C@]12CC[C@@H](O)C[C@H]1CC[C@@H]1[C@@H]2C(=O)C[C@@]2(C)[C@H]1CC[C@]2(O)C(=O)CO,−
3,C=C[C@H]1C[N@@]2CC[C@H]1C[C@H]2[C@H](O)c1ccnc2ccc(OC)cc12,−
4,CC(CCc1ccccc1)NCC(O)c1ccc(O)c(C(N)=O)c1 (stereo not drawn),−
5,Nc1nc(N)c2nc(-c3ccccc3)c(N)nc2n1,−
6,CNCCC=C1c2ccccc2CCc2ccccc21,−
7,COc1ccc(Cc2nccc3cc(OC)c(OC)cc23)cc1OC,−
8,Vitamin B1,−
9,C[C@]12C=CC(=O)C=C1CC[C@@H]1[C@@H]2C(=O)C[C@@]2(C)[C@H]1CC[C@]2(O)C(=O)CO,−
10,NCCc1c[nH]c2ccc(O)cc12,−
11,Cc1cc(C)nc(NS(=O)(=O)c2ccc(N)cc2)n1,−
12,CNCCCN1c2ccccc2CCc2ccccc21,−
13,NCCc1ccc(O)cc1,−
14,CN(C)CCOC(c1ccccc1)c1ccccc1,−
15,CNC(C)Cc1ccccc1OC (stereo not drawn),−
16,Hydroxytyramine,−
17,C=CCC1(C(C)CCC)C(=O)NC(=O)NC1=O (stereo not drawn),−
18,CN(C)CCCN1c2ccccc2Sc2ccc(Cl)cc21,−
19,CNCCCC12CCC(c3ccccc31)c1ccccc12,−
20,COc1cc(Cc2cnc(N)nc2N)cc(OC)c1OC,−
21,CC(C)(C)NCC(O)c1ccc(O)c(CO)c1 (stereo not drawn),−
22,O=C1CC[C@@]2(O)[C@H]3Cc4ccc(O)c5c4[C@@]2(CCN3CC2CC2)[C@H]1O5,−
23,O=C(N[C@H](CO)[C@H](O)c1ccc([N+](=O)[O-])cc1)C(Cl)Cl,−
24,COc1ccc(CCN(C)CCCC(C#N)(c2ccc(OC)c(OC)c2)C(C)C)cc1OC (stereo not drawn),−
25,O=C(O)c1cc(O)ccc1O,−
26,Benzoylecgonine,−

row,Compound,Result (drug cross-interference)
1,CSc1ccc2c(c1)N(CCC1CCCCN1C)c1ccccc1S2 (stereo not drawn),−
2,CNC1(c2ccccc2Cl)CCCCC1=O (stereo not drawn),−
3,CN(C)CCC=C1c2ccccc2CCc2ccccc21,−
4,C#C[C@]1(O)CC[C@H]2[C@@H]3CCC4=CC(=O)CC[C@@H]4[C@H]3CC[C@@]21C,−
5,Cc1ccccc1-n1c(C)nc2ccccc2c1=O,−
6,CCOc1ccc(NC(C)=O)cc1,−
7,NCC(O)c1ccc(O)cc1 (stereo not drawn),−
8,CC(C)Cc1ccc(C(C)C(=O)O)cc1 (stereo not drawn),−
9,Levo-cotinine,−
10,CC(C(=O)O)c1cccc(Oc2ccccc2)c1 (stereo not drawn),−
11,N[C@@H](Cc1c[nH]c2ccccc12)C(=O)O,−
12,Ecgonidine methyl ester,−
13,CCN(CC)CCNC(=O)c1ccc(NC(C)=O)cc1,−
14,O=C(O)c1ccccc1O,−
15,CC(C)NCC(O)COc1cccc2ccccc12 (stereo not drawn),−
16,NC(=O)N1c2ccccc2C=Cc2ccccc21,−
17,NC(=O)c1cccnc1,−
18,CN(C)CCCN1c2ccccc2CCc2ccc(Cl)cc21,−
19,NS(=O)(=O)c1cc(C(=O)O)c(NCc2ccco2)cc1Cl,−
20,CN(C)CCC=C1c2ccccc2C=Cc2ccccc21,−
21,CN(C)C(=O)C(CCN1CCC(O)(c2ccc(Cl)cc2)CC1)(c1ccccc1)c1ccccc1,−
22,Narcotine,−
23,NS(=O)(=O)c1cc2c(cc1Cl)N=CNS2(=O)=O,−
24,O=C1O[C@H]([C@@H](O)CO)C(O)=C1O,−
25,Penicillin,−
26,CC(NC(C)(C)C)C(=O)c1cccc(Cl)c1 (stereo not drawn),−
